Reference: PubChem BioAssay AID1984 (Sanford-Burnham Center for Chemical Genomics, 2009)
The entries are a selection whose mix differs from that of the whole data set. Some salts or complexes appear as unconnected parts, following the source record. The source made the active and inactive calls.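 Rule for the calls: active = EGFP signal decrease of at least 30% at 10 µM or well 3 SD below plate mean, unless failing retest; inactive = the rest, including hits failing retest or dose response.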

The chains behind the UniProt entries cited, without tags or fusion partners. Residues count along the entry.
UniProt Q05BA5, 1-1403: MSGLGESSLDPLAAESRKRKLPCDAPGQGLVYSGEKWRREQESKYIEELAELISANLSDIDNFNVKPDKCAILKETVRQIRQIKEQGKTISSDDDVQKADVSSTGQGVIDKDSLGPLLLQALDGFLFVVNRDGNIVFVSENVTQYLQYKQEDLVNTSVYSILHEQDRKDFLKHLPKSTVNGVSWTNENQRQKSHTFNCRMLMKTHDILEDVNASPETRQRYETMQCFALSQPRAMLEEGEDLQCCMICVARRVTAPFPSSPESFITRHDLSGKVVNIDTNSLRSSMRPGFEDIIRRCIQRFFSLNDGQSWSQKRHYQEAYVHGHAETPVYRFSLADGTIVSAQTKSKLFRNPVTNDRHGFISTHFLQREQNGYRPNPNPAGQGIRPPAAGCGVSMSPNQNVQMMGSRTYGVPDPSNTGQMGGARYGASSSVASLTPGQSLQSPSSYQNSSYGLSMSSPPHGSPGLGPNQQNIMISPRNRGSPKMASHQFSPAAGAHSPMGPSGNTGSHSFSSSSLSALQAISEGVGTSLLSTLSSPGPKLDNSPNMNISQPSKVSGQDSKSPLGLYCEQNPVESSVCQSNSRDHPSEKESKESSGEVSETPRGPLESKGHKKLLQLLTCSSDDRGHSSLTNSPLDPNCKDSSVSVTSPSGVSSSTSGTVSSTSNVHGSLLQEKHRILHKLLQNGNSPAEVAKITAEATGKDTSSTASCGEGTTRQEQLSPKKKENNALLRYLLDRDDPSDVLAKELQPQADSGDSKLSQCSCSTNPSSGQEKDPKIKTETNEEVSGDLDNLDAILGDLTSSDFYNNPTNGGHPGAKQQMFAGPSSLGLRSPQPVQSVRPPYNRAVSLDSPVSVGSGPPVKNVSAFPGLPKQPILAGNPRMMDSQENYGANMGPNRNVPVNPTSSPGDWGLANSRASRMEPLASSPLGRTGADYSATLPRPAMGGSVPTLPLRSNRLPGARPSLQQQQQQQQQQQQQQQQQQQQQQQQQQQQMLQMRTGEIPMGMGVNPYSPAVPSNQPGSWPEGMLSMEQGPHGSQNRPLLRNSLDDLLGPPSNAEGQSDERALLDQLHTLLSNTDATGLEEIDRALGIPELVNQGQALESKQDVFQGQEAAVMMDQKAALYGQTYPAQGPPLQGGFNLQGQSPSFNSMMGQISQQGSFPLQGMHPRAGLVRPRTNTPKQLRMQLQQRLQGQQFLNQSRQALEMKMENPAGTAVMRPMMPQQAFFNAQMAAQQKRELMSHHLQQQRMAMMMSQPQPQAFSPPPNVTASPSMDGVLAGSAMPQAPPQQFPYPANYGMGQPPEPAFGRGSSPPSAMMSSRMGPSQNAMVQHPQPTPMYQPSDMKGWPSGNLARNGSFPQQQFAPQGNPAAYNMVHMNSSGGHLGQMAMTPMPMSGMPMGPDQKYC

Target: p/CIP-EGFP fusion (nuclear receptor coactivator 3, mouse) (UniProt Q05BA5)
Test: compounds lowering mouse p/CIP (NCOA3) protein levels – fluorescence, F442A cells, EGFP fusion, primary screen (AID 1984)
Conditions: 16 h, at 10 µM, active compounds read high

SMILES	decrease of EGFP signal
COc1ccc(OP(C)(=O)Nc2cccc(Br)c2)cc1 (stereo not given)	inactive: 6.4%
CN(C)CCOC(=O)C(O)(c1ccccc1)C1CCCCC1 (stereo not given)	inactive: -3.2%
COc1ccc(NP(C)(=O)Oc2ccccc2OC)cc1 (stereo not given)	inactive: -4.2%
O=[N+]([O-])c1ccc(OP2(=O)COCCO2)cc1 (stereo not given)	inactive: 6.3%
O=[N+]([O-])c1cc([N+](=O)[O-])c(NCC2CCS(=O)(=O)C2)c([N+](=O)[O-])c1 (stereo not given)	inactive: -30.4%
Cc1cc(-c2cccc3ccccc23)c(C)cn1.O=[N+]([O-])c1cc([N+](=O)[O-])c(O)c([N+](=O)[O-])c1	inactive: -0.4%
CP(=O)(Nc1ccc(SC(F)(F)F)cc1)Oc1ccc(F)cc1 (stereo not given)	inactive: 8.4%
CCOP(C)(=S)SCC(=O)NC(C)(CC)C(=O)O (stereo not given)	inactive: -0.9%
CP(=O)(Nc1ccc2c(c1)OCCO2)Oc1ccccc1 (stereo not given)	inactive: 7.3%
Cc1ccccc1NP(C)(=O)Nc1ccccc1C	inactive: -18.4%
CP(=O)(Nc1ccccc1F)Oc1ccccc1 (stereo not given)	inactive: 3.7%
CC(C)c1ccc(OP(C)(=O)Nc2ccc(SC(F)(F)F)cc2)cc1 (stereo not given)	inactive: -4.2%
O=C(OC1CN2CCC1CC2)c1ccc([N+](=O)[O-])cc1 (stereo not given)	inactive: -4.6%
O=C(OCCN1CCN(CCOCc2ccccc2)CC1)C(O)(c1ccccc1)c1ccccc1	inactive: 3.4%
COc1ccc2c(c1O)-c1c(O)c(OC)cc3c1[C@H](C2)[N+](C)(C)CC3.O=[N+]([O-])c1cc([N+](=O)[O-])c([O-])c([N+](=O)[O-])c1[O-]	inactive: 0.4%
CCOC(=O)c1ccc(NP(C)(=O)Oc2ccc(F)cc2)cc1 (stereo not given)	inactive: -34.5%
COc1ccc(OP(C)(=O)Nc2ccc(SC(F)(F)F)cc2)cc1 (stereo not given)	inactive: 11.5%
CCN(CC)CCCOC(=O)C(O)(c1ccccc1)C1CCCCC1 (stereo not given)	inactive: -4.4%
CP(=O)(Nc1ccccc1)Oc1ccc(F)cc1 (stereo not given)	inactive: 3.2%
O=[N+]([O-])c1cc([N+](=O)[O-])c(OC2CCCCC2O)c([N+](=O)[O-])c1 (stereo not given)	inactive: -16.2%
CCCCCOc1ccc(NP(C)(=O)Oc2ccc(Cl)cc2Cl)cc1 (stereo not given)	inactive: 2.7%
Cc1cc(C)cc(OP(C)(=O)Nc2cccc(C(F)(F)F)c2)c1 (stereo not given)	inactive: -12.5%

SMILES	decrease of EGFP signal
COc1ccccc1OP(C)(=O)Nc1ccc(C)c(C)c1 (stereo not given)	inactive: 3.1%
COc1ccc(OP(C)(=O)Nc2ccccc2Br)cc1 (stereo not given)	inactive: -2.9%
Cc1nc2ccc3ccccc3c2o1.O=[N+]([O-])c1cc([N+](=O)[O-])c(O)c([N+](=O)[O-])c1	inactive: -3.7%
CP(=O)(OCCOc1ccccc1)OCCOc1ccccc1	inactive: 1.2%
CP(=O)(Nc1ccc(Cl)cc1Cl)Oc1ccccc1 (stereo not given)	inactive: 2.5%
COc1ccccc1OP(C)(=O)Nc1ccc(Br)cc1 (stereo not given)	inactive: -10%
COc1ccc(OP(C)(=O)Nc2ccccn2)cc1 (stereo not given)	inactive: -8.5%
CN(C)CCOC(=O)C(O)(c1ccccc1)C1CCCC1 (stereo not given)	inactive: 8.4%
O=[N+]([O-])c1cc([N+](=O)[O-])c(Nc2ccccn2)c([N+](=O)[O-])c1	inactive: -14.3%
Cc1c(NP(C)(=O)Oc2ccc(C(C)C)cc2)c(=O)n(-c2ccccc2)n1C (stereo not given)	inactive: 3.2%
CP(=O)(Nc1ccccn1)Oc1ccccc1 (stereo not given)	inactive: 4.2%
COc1ccccc1OP(C)(=O)Nc1ccc(C)cc1C (stereo not given)	inactive: -9.6%
CCc1ccc(OP(C)(=O)O)cc1	inactive: -11.2%
CCN(CC)CC(O)COC(=O)C(O)(c1ccccc1)C1CCCCC1 (stereo not given)	inactive: -10.4%
COc1ccc(OP(C)(=O)Nc2ccc(Br)cc2)cc1 (stereo not given)	inactive: 1.4%
COc1ccccc1OP(C)(=O)Nc1c(C)n(C)n(-c2ccccc2)c1=O (stereo not given)	inactive: -5.6%
O=C(OCCCN1CCCC1)C(O)(c1ccccc1)C1CCCCC1 (stereo not given)	inactive: -2.1%
CP(=O)(Oc1ccccc1)N1CCOC1=O (stereo not given)	inactive: -0.4%
CCc1ccc(OP(C)(=O)Nc2cccnc2)cc1 (stereo not given)	inactive: 1.8%
CC(C)(C)c1ccc(OP(C)(=O)O)cc1	inactive: 6.6%
COc1ccccc1OP(C)(=O)Nc1ccccc1Br (stereo not given)	inactive: 11.6%
CP(=O)(Nc1ccc(Cl)cc1)Oc1ccc(F)cc1 (stereo not given)	inactive: -10.8%

SMILES	decrease of EGFP signal
CN(C)C(=O)c1c([N+](=O)[O-])cc([N+](=O)[O-])cc1[N+](=O)[O-]	inactive: 9.9%
CCOC(=O)c1ccc(NP(C)(=O)Oc2ccc(Cl)cc2)cc1 (stereo not given)	inactive: 4.7%
CP(=O)(OC12CC3CC(CC(C3)C1)C2)OC12CC3CC(CC(C3)C1)C2	inactive: -4%
CP(=S)(Nn1cnnc1)Oc1ccccc1 (stereo not given)	inactive: 0.3%
CP(=O)(Nc1ccccc1Br)Oc1ccccc1 (stereo not given)	inactive: -1%
COc1ccccc1OP(C)(=O)Nc1ccccc1 (stereo not given)	inactive: 3.9%
CP(=O)(Nc1ccc(SC(F)(F)F)cc1)Oc1ccc(Cl)cc1 (stereo not given)	inactive: -8.3%
Cc1cccc(C)c1OP(C)(=O)Nc1ccc(SC(F)(F)F)cc1 (stereo not given)	inactive: -6.8%
CP(=O)(Oc1ccccc1)OC(c1ccccc1)C(F)(F)F (stereo not given)	inactive: 0.3%
CCc1ccc(OP(C)(=O)N2CCN(c3ccc([N+](=O)[O-])cc3)CC2)cc1 (stereo not given)	inactive: -7.3%
CP(=O)(NC(=O)Nc1ccccc1)Oc1ccccc1 (stereo not given)	inactive: -6.7%
Cc1cc(C)cc(OP(C)(=O)Nc2ccc(SC(F)(F)F)cc2)c1 (stereo not given)	inactive: 1.6%
CCOC(=O)c1ccc(NP(C)(=O)Oc2ccc(OC)cc2)cc1 (stereo not given)	inactive: 0%
CCOP(C)(=S)SCC(=O)NC(C)C(=O)O (stereo not given)	inactive: -4.9%
CP(=O)(Nc1ccccn1)Oc1ccc(Cl)cc1 (stereo not given)	inactive: -15%
CCN(CC)CCCOC(=O)C(O)(c1ccccc1)c1ccccc1	inactive: -11.2%
O=[N+]([O-])c1ccc2c(c1)C=Nc1ccccc1O2	inactive: 2.2%
CC(C)(C)c1ccc(OP(C)(=O)Nc2ccc(SC(F)(F)F)cc2)cc1 (stereo not given)	inactive: 7.5%
Cc1cccc(C)c1OP(C)(N)=O (stereo not given)	inactive: -1.5%
COc1ccccc1OP(C)(=O)Nc1ccc(C)cc1 (stereo not given)	inactive: -0.1%
Cc1ccc(NP(C)(=O)Oc2ccccc2)c(C)c1 (stereo not given)	inactive: -16.7%
CCOC(=O)c1ccc(NP(C)(=O)Oc2ccccc2)cc1 (stereo not given)	inactive: 4.6%

SMILES	decrease of EGFP signal
Cc1cc(C)cc(OP(C)(N)=O)c1 (stereo not given)	inactive: -14.9%
COc1ccccc1OP(C)(=O)Nc1cc(Cl)ccc1C (stereo not given)	inactive: -14.5%
COc1ccc(OP(C)(=O)Nc2cccc(F)c2)cc1 (stereo not given)	inactive: 1.1%
O=C(O)c1cccc(Nc2c([N+](=O)[O-])cc([N+](=O)[O-])cc2[N+](=O)[O-])c1	inactive: -8.2%
CC1=NCCc2c1[nH]c1ccccc21.O=[N+]([O-])c1cc([N+](=O)[O-])c(O)c([N+](=O)[O-])c1	inactive: -0.4%
COc1ccccc1OP(C)(=O)Nc1cccc(Br)c1 (stereo not given)	inactive: -9.7%
CCOC(=O)c1ccc(NP(C)(=O)Oc2cc(C)cc(C)c2)cc1 (stereo not given)	inactive: 4.3%
Cc1cc(C)cc(OP(C)(=O)Nc2ccc(C)cc2C)c1 (stereo not given)	inactive: -8.2%
Cc1ccc(C)c(NP(C)(=O)Oc2ccccc2)c1 (stereo not given)	inactive: 5.7%
CP(=O)(Nc1cccc(Br)c1)Oc1ccccc1 (stereo not given)	inactive: -5.8%
Cc1cc(C)cc(OP(C)(=O)Nc2ccccn2)c1 (stereo not given)	inactive: -1%
O=[N+]([O-])c1cc([N+](=O)[O-])c(-n2nnc3ccccc32)c([N+](=O)[O-])c1	inactive: -9.5%
Cc1nc2ccc3ccccc3c2s1.O=[N+]([O-])c1cc([N+](=O)[O-])c(O)c([N+](=O)[O-])c1	inactive: 1.3%
O=[N+]([O-])c1cc([N+](=O)[O-])c(Nc2nnnn2CCO)c([N+](=O)[O-])c1	inactive: 0.2%
CCOC(=O)C(CC)C1=NC(C)(C)Cc2ccccc21.O=[N+]([O-])c1cc([N+](=O)[O-])c(O)c([N+](=O)[O-])c1 (stereo not given)	inactive: -11.3%
CN1CCCCC1COC(=O)C1(O)c2ccccc2CCc2ccccc21 (stereo not given)	inactive: -13.4%
COc1ccccc1OP(C)(=O)Nc1c(C)cccc1C (stereo not given)	inactive: -6.7%
CP(=O)(Nc1ccc(SC(F)(F)F)cc1)Oc1ccccc1 (stereo not given)	inactive: 7.1%
CCCOc1ccc(NP(C)(=O)Oc2ccc(Cl)cc2)cc1 (stereo not given)	inactive: 7%
